Values after ≈ are worked out from the molar mass of the structure shown. Like-named read-outs stand apart in the source and are kept apart here.
Experiments:
[1] = system: mice; conditions: 0.2 mg/kg i.v., n = 7
[2] = system: rat TRPV1; conditions: 60 µM; CHO cells stably expressing receptor
[3] = system: human TRPV3; conditions: 60 µM; CHO cells stably expressing receptor
[4] = system: TRPA1; assay: Fluorescent assay of calcium influx (Fluo-4), TRPA1-CHO; assay type: cell-based, rat; conditions: 1 µM; stably transfected CHO cells, Fluo-4, room temperature, pH 7.4
[5] = system: mice; assay: CFA-induced inflammation and thermal hyperalgesia; assay type: in vivo, CD-1 mice; conditions: n = 7
[6] = system: mice; conditions: 0.2 mg/kg i.v. 30 min before testing; 15 min recording; results not shown
[7] = system: Staphylococcus aureus; conditions: natural peptide, up to 200 µM; Mueller Hinton Broth, OD595, two parallels
[8] = system: TRPA1; conditions: 240 µM, no agonist
[9] = system: TRPA1; assay: Electrophysiology, TRPA1 in Xenopus laevis oocytes, diclofenac-induced currents; assay type: cell-based, rat; conditions: for TRPA1 inward currents potentiation / TRPA1 outward currents potentiation: mean ± SD
[10] = system: Corynebacterium glutamicum; assay type: cell-based, Corynebacterium glutamicum (ATCC 13032)
[11] = system: mice; conditions: 10 μL, 50 μM solution into hind paw; 2 h experiment; hot plate 53 °C
[12] = system: Escherichia coli; conditions: natural peptide
[13] = system: TRPA1
[14] = system: Pseudomonas aeruginosa; conditions: natural peptide
[15] = 30 min before AITC (20 µL, 0.5%), 5 min recording, versus saline
[16] = 60 µM, 300 µM diclofenac, n = 5–7
[17] = 120 µM, 300 µM diclofenac, n = 5–7
[18] = 240 µM, 300 µM diclofenac, n = 5–7, "up to"
[19] = 0.3 to 27 µM, 300 µM diclofenac, Xenopus oocytes, Ca^2+-free, 22–24 °C, n = 5–7
[20] = OD595, Mueller Hinton Broth, room temperature, two parallels

C[C@H](NC(=O)[C@@H]1CSSC[C@@H]2NC(=O)[C@H](CC(=O)O)NC(=O)[C@H](Cc3c[nH]cn3)NC(=O)[C@H](Cc3ccccc3)NC(=O)CNC(=O)[C@H](CO)NC(=O)[C@H](CCC(=O)O)NC(=O)[C@@H]3CSSC[C@H](NC(=O)[C@@H]4CSSC[C@H](NC(=O)[C@H](Cc5c[nH]cn5)NC(=O)CNC(=O)[C@@H]5CSSC[C@H](N)C(=O)N[C@@H](Cc6ccc(O)cc6)C(=O)N6CCC[C@H]6C(=O)NCC(=O)N[C@@H](CCC(N)=O)C(=O)N6CCC[C@H]6C(=O)NCC(=O)N5)C(=O)N[C@@H](CO)C(=O)N[C@@H](CCCNC(=N)N)C(=O)N5CCC[C@H]5C(=O)N[C@@H](CC(N)=O)C(=O)N[C@@H](Cc5ccc(O)cc5)C(=O)N[C@@H](CSSC[C@H](NC(=O)[C@H](Cc5c[nH]c6ccccc56)NC(=O)[C@H](Cc5c[nH]cn5)NC(=O)[C@H](CC(=O)O)NC(=O)[C@H](CO)NC(=O)CNC2=O)C(=O)N[C@@H](CC(=O)O)C(=O)N[C@@H](C)C(=O)N[C@@H](CO)C(=O)NCC(=O)N[C@@H](CC(=O)O)C(=O)N[C@@H](CCCNC(=N)N)C(=O)N4)C(=O)N[C@@H](CCC(=O)O)C(=O)NCC(=O)N[C@@H](C)C(=O)N[C@@H](CCCNC(=N)N)C(=O)N3)C(=O)N1)C(=O)O [Ueq 12-1]
reduction of paw licking [1, 15]: 49% | reduction of time spent guarding [1, 15]: 43% | AITC-induced nocifensive behavior (in words) ([1]; 30 min before AITC (20 µL, 0.5%)): significantly reduced | reduction of AITC paw edema, 2 h ([1]; 2 h after injection): 39% | reduction of AITC paw edema, 4 h ([1]; 4 h after injection): 57% | agonistic / antagonistic activity on rat TRPV1 [2]: neither agonistic nor antagonistic activity | agonistic / antagonistic activity on human TRPV3 [3]: neither agonistic nor antagonistic activity | potentiation of AITC induced TRPA1 Ca^2+ influx [4]: 35 ± 10% | time to reversal of thermal hyperalgesia ([5]; 0.2 mg/kg i.v. 24 h after CFA, hot plate 53 °C): ≤ 30 min | effect on thermal hyperalgesia (in words) ([5]; 0.2 mg/kg i.v. 24 h after CFA, within 30 min): reversed thermal hyperalgesia | decrease of CFA paw edema ([5]; 0.2 mg/kg i.v., 24 h after injection): 27% | normal behavior in the open field test [6]: did not change the normal behavior | antibacterial activity (in words) [7]: minor activity | current caused by peptide alone in TRPA1-expressing oocytes [8]: did not cause any current | TRPA1 inward currents potentiation [9, 16]: 378 ± 65% | TRPA1 outward currents potentiation [9, 16]: 200 ± 23% | TRPA1 inward currents potentiation [9, 17]: 719 ± 98% | TRPA1 outward currents potentiation [9, 17]: 453 ± 104% | TRPA1 inward currents potentiation [9, 18]: 2559 ± 959% | TRPA1 outward currents potentiation [9, 18]: 835 ± 566% | potentiation of TRPA1 activation (in words) ([9]; 240 µM, induced by diclofenac): significantly potentiated | effect in trace at 750 μM ([9]; 750 μM, Figure 6E): defunctionalization of TRPA1 | potentiation of TRPA1 inward currents, up to [9, 19]: 132–186% | potentiation of TRPA1 outward currents, up to [9, 19]: 120–135% | response to agonist at high peptide concentration ([9]; above 750 µM): no standard response to agonist | effect at high concentrations on response of the receptor ([9]; high concentrations): completely blocked the response of the receptor | growth inhibition at 50 µM ([10]; 50 µM): significantly inhibited growth | concentrations at which the peptide is antibacterial ([10]; 12.5 to 200 µM tested, Figure 5): ≥ 50 µM | antibacterial activity (in words) ([10]; natural peptide, up to 200 µM): moderate activity | MIC ([10]; natural peptide, lowest concentration with no bacterial growth, OD595, Mueller Hinton Broth, room temperature, 1.3−1.5 × 10^4 bacteria/mL, two parallels): 50 µM (≈ 240 µg/mL) | pain, paw edema, thermal hyperalgesia after paw injection [11]: did not cause pain, paw edema or significant thermal hyperalgesia | antibacterial activity (in words) ([12]; up to 200 µM): no activity | MIC [12, 20]: > 200 µM | effect on AITC-induced currents (in words) ([13]; 100 µM AITC, Figure 6F): same potentiating effect | potentiation of TRPA1 activation (in words) ([13]; 240 µM, induced by AITC): significantly potentiated | antibacterial activity (in words) ([14]; up to 200 µM): no activity | MIC [14, 20]: > 200 µM

From publication PMC5450702 (Toxins, 2017)
